In patent publication US9765328B2, “Nuclease-resistant DNA analogues” (Arizona Board of Regents on Behalf of Arizona State …, priority 2014, dated 2017):

Test system: phosphodiesterase I from Crotalus adamanteus venom
Experiment: Nuclease stability assay, snake venom phosphodiesterase (SVPE)
Settings: 24 hours at 37° C.; denaturing PAGE

3′-tctctctctctc-2′
stability against snake venom phosphodiesterase (SVPE): completely stable
